The entries are a selection whose mix differs from that of the whole data set. Activity calls are given as the source filed them.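 The calls were made as follows: active = at least 50% inhibition at 5 µM, scaled per plate between neutral and stimulator controls; inactive = the rest.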
Assay: NF-kB reporter blockers in CF airway cells – cell-based, GFP fluorescence, uHTS, primary screen (AID 588850);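 also: PAF is a Pseudomonas aeruginosa culture filtrate used as stimulus; plate controls were PAF-stimulated DMSO wells for no effect and unstimulated DMSO wells for full effect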
Conditions: KKLEB NF-kB-GFP reporter, PAF-induced, GFP fluorescence overnight; at 5 µM; hits give high values

| Compound | inhibition |
| --- | --- |
| Nc1ccc([As](=O)(O)c2ccc(N)cc2)cc1 | inactive: 12.9% |
| CCN(/C(=N/P(=O)(N1CCOCC1)N1CCOCC1)N1CCOCC1)c1ccc(OC)cc1 | inactive: 2.4% |
| O=C(Nc1cc([As](=O)(O)O)ccc1O)c1ccccc1 | inactive: -16.3% |
| O=P1(N(CCCl)CCCl)OCCCS1 (centres undefined) | inactive: -3.1% |
| COC(=O)C1(C)COP(=O)(Nc2ccccc2)OC1 (centres undefined) | inactive: 7.1% |
| O=[N+]([O-])c1cccc(NC2=NCC(CBr)S2)c1 (centres undefined) | inactive: 11.9% |
| O=C(O)CNc1ccc([As](=O)(O)O)cc1 | inactive: -18.8% |
| CC(C)(C)C(=O)NC(Sc1ccncn1)C(Cl)(Cl)Cl (centres undefined) | inactive: -8.1% |
| O=[N+]([O-])c1ncn(CCn2ncnc2[N+](=O)[O-])n1 | inactive: -0.6% |
| Cc1ccc(NP(=O)(Oc2ccccc2F)Oc2ccccc2F)nc1 | inactive: 7% |
| CN(C(=O)Cc1ccc(Cl)c(Cl)c1)[C@H]1CCCC[C@@H]1N1CCCC1 | inactive: 6.2% |
| Cc1cc(SC(NC(=O)c2ccc(F)cc2)C(Cl)(Cl)Cl)ncn1 (centres undefined) | inactive: -0.5% |
| CCOP(=O)(Nc1ccccc1)OCC | inactive: -4.1% |
| CCCC1OP(N)(=O)OCC1CC (centres undefined) | inactive: -6.9% |
| CC(=O)Nc1ccc([As](=O)(O)O)cc1 | inactive: -18.7% |
| O=C(O)c1ccccc1[As](=O)(O)O | inactive: 11.9% |
| O=P(Nc1nc2ccc(Cl)cc2s1)(c1ccccc1)c1ccccc1 | inactive: -19.3% |
| CN(C)P(=O)(N(C)C)n1c(Nc2ccccc2)nnc1-c1ccccc1 | inactive: -6.9% |
| CCN(N=Nc1nonc1N)c1nonc1N | inactive: 4.4% |
| Nc1cccc2ccc([As](=O)(O)O)cc12 | inactive: 11.1% |
| Cc1ccc(OP(=O)(Nc2nccs2)Oc2ccc(C)cc2)cc1 | inactive: 9.1% |
| COc1ccccc1OP(=O)(Nc1ccc(C)cn1)Oc1ccccc1OC | inactive: 10.4% |
| CN1CCCC(OC(=O)C(c2ccccc2)c2ccccc2)C1 (centres undefined) | inactive: 6.4% |
| Clc1ccc(Cl)c(NC2=NCC(CBr)S2)c1 (centres undefined) | inactive: 11.6% |
| NC(=O)c1cc([N+](=O)[O-])cc([N+](=O)[O-])c1N | inactive: -26.5% |

| Compound | inhibition |
| --- | --- |
| Cc1ccc(N/C(=N/P(=O)(N2CCOCC2)N2CCOCC2)N2CCOCC2)cc1 | inactive: -2.2% |
| CN(C(=O)Cc1ccc(Cl)c(Cl)c1)[C@H]1CCCC[C@H]1N1CCCC1 | inactive: 1.2% |
| O=[N+]([O-])C1C(O)C(O)C([N+](=O)[O-])C(O)C1O (centres undefined) | inactive: -30.7% |
| Nc1cc(N)c2nonc2c1[N+](=O)[O-] | inactive: -17.1% |
| CC(C)CC(=O)NC(Sc1ccc(Cl)cc1)C(Cl)(Cl)Cl (centres undefined) | inactive: -1% |
| O=C(NC(Sc1ccncn1)C(Cl)(Cl)Cl)c1ccccc1 (centres undefined) | inactive: 5.3% |
| Oc1ccccc1CNc1ccccn1 | inactive: -6.3% |
| CCc1cc(O)c([N+](=O)[O-])c(C)c1[N+](=O)[O-] | inactive: 3.7% |
| CC(C)(C)C(=O)NC(Sc1ccccc1)C(Cl)(Cl)Cl (centres undefined) | inactive: 12.1% |
| CCOc1ccc(C2=NCC(CBr)S2)cc1 (centres undefined) | inactive: 6.8% |
| O=P1(Nc2nc3ccc(Cl)cc3s2)COc2ccccc2O1 (centres undefined) | inactive: 15.6% |
| CC(=O)Nc1ccc(Oc2c([N+](=O)[O-])cc([N+](=O)[O-])cc2[N+](=O)[O-])cc1 | inactive: -0.5% |
| CC(=O)Nc1ccc([As](=O)(O)O)c(O)c1 | inactive: 6.3% |
| COC(=O)C1(C)COP(=O)(NCc2ccccc2)OC1 (centres undefined) | inactive: -4% |
| CC(=O)c1ccc(N2CC2c2ccncc2)cc1 (centres undefined) | inactive: -19.7% |
| N#C/C(=C\c1ccc(N(CCBr)CCBr)cc1)C(N)=O | inactive: 4.5% |
| C[C@H]1OP(=O)(Oc2ccccc2)C[C@@H]2O[C@@H]21 (some centres undefined) | inactive: 6.6% |
| C[C@@H]1C=CCP(=O)(Oc2ccccc2)O1 (some centres undefined) | inactive: 0.9% |
| Cc1ccccc1CN(C)C(=O)COC(=O)C(O)(c1ccccc1)c1ccccc1 | inactive: 8.3% |
| O=P1(N(CCCl)CCCl)OCCC2CCCCN21 (centres undefined) | inactive: -1.7% |
| CCNC(=S)/N=C(\N)N[N+](=O)[O-] | inactive: -16.3% |
| O=C(NC1CCS(=O)(=O)C1)NP(=S)(Oc1ccccc1)Oc1ccccc1 (centres undefined) | inactive: 3.2% |
| Cc1ccc(NP(=O)(Oc2cccc(C)c2)Oc2cccc(C)c2)nc1 | inactive: 2.7% |
| c1ccc(-c2nn[nH]n2)c(-c2nn[nH]n2)c1 | inactive: 6.8% |
| O=c1c2cc([N+](=O)[O-])ccc2[nH]c2c([N+](=O)[O-])cc([N+](=O)[O-])cc12 | active: 97% |

| Compound | inhibition |
| --- | --- |
| CN(C)C(=O)Oc1noc2ccccc12 | inactive: -0.2% |
| CC(NC(=O)COC(=O)C(O)(c1ccccc1)c1ccccc1)c1ccccc1 (centres undefined) | inactive: 5.7% |
| Cc1ccccc1OP(=O)(Nc1ccccn1)Oc1ccccc1C | inactive: -12.8% |
| Cc1ccc(OP(=O)(Nc2ccccn2)Oc2ccc(C)cc2)cc1 | inactive: -14.3% |
| CC(=O)NC(SC(=S)N(CC(C)C)CC(C)C)C(Cl)(Cl)Cl (centres undefined) | inactive: 7.6% |
| COC(=O)c1cc2c(s1)N=C(c1ccccc1)N(C)P2(=O)N1CCOCC1 (centres undefined) | inactive: -5.7% |
| CCC(=O)N1C2C3N(C(=O)CC)C1C1N(C(=O)CC)C(C(N1C(=O)CC)N3C(=O)CC)N2C(=O)CC | inactive: 10.3% |
| O=C(OC1CN2CCC1CC2)c1ccccc1 (centres undefined) | inactive: -1.7% |
| C[C@H]1OP(=O)(Oc2ccccc2)[C@H](O)[C@H](O)[C@H]1N=[N+]=[N-] (some centres undefined) | inactive: -2% |
| O=P(Nc1nc2ccccc2s1)(c1ccccc1)c1ccccc1 | inactive: -2.1% |
| COc1ccc(N)c([N+](=O)[O-])c1[N+](=O)[O-] | inactive: 12.1% |
| Nc1ccc(CCCCOc2ccccc2)cc1 | inactive: 5.4% |
| O=P(Nc1ccccn1)(c1ccc(Br)cc1)c1ccc(Br)cc1 | inactive: -12.9% |
| CN(C)C1(CNC(=O)c2ccc(Cl)c(S(N)(=O)=O)c2)CCCCC1 | inactive: 6.1% |
| C(Cc1nn[nH]n1)Cc1nn[nH]n1 | inactive: 6% |
| Nc1ccc([As](=O)(O)c2ccc([N+](=O)[O-])cc2)cc1 | inactive: 12.6% |
| O=C(OC1CN2CCC1CC2)c1cccc(Cl)c1 (centres undefined) | inactive: 0% |
| O=[N+]([O-])c1ccc(O)c(/C=N/Nc2ccc([N+](=O)[O-])cc2[N+](=O)[O-])c1 | active: 58.8% |
| O=[N+]([O-])c1ncn(CCn2cnc([N+](=O)[O-])n2)n1 | inactive: -2.8% |
| CC(=O)NC(SC(=S)N(C)C)C(Cl)(Cl)Cl (centres undefined) | inactive: 7.2% |
| O=[As](O)(c1ccccc1)c1ccc(O)cc1 | inactive: 5.5% |
| c1nnnn1CCn1cnnn1 | inactive: 0.2% |
| CC(C)C(=O)NC(Sc1ccccc1)C(Cl)(Cl)Cl (centres undefined) | inactive: 3.8% |
| O=P(Nc1nccs1)(c1ccccc1)c1ccccc1 | inactive: 8% |

— PubChem BioAssay AID588850 (Sanford-Burnham Center for Chemical Genomics, 2011)
